Source: patent publication US9670166B2, “Substituted bicyclic dihydropyrimidinones and their use as inhibitors of neutrophil elastase activity” (Boehringer Ingelheim International GmbH, priority 2013, dated 2017)

Assay: Metabolic stability with human hepatocytes
Format: in vitro ADME
Conditions: human hepatocyte suspension, 1 μM, scaled by well stirred model
Experimental: Human hepatocytes (typically cryopreserved) are incubated in an appropriate buffer system (e.g. Dulbecco's modified eagle medium plus 3.5 μg glucagon/500 mL, 2.5 mg insulin/500 mL and 3.75 mg/500 mL hydrocortisone) containing 5% species serum. Following a (typically) 30 min preincubation in an incubator (37° C., 10% CO2), 5 μl of test compound solution (80 μM; from 2 mM stock solution in DMSO diluted 1:25 with medium) are added into 395 μl hepatocyte suspension (cell density in the range 0.25-5*10^6 cells/mL, typically 1*10^6 cells/mL; final concentration of test compound 1 μM, final DMSO concentration 0.05%). […] The decline of parent compound is analyzed by LC-MS/MS.
The intrinsic clearance CL_[…] is calculated as follows: CL_[…]=Dose/AUC=(C0/CD)/(AUD+clast/k)*1,000/60 […]
The calculated in vitro hepatic intrinsic clearance can be scaled up to the intrinsic in vivo hepatic clearance and used to predict hepatic in vivo blood clearance (CL) by the use of a liver model (well stirred model): CL_[…]_INVIVO [ml/min/kg]=(CL_[…] [μL/min/10^6 cells]*hepatocellularity [10^6 cells/g liver]*liver factor [g/kg bodyweight])/1,000 CL [ml/min/kg]=CL_[…]_INVIVO [ml/min/kg]*hepatic blood flow [ml/min/kg]/(CL_[…]_INVIVO [ml/min/kg]+hepatic blood flow [ml/min/kg]) Qh [%]=CL [ml/min/kg]/hepatic blood flow [ml/min/kg]) […]

- CL (predicted human hepatic in vivo blood clearance): 0 mL/min/kg
Compound: CS(=O)(=O)c1cc(C#N)ccc1C1C2=C(CCC2=O)N(c2cccc(C(F)F)c2)C(=O)N1C(=O)NC1CC1 (stereo not shown) [Example 53.3]
